Reference: patent publication US20220315654A1

Tests used:
[1] = molecular target: human CD47 on cells (Raji, Nalm-6, HT-1080 tumor cells, human red blood cells) (human) (UniProt Q08722); experiment: flow cytometry on Nalm-6 cells (CD47+, PD-L1-), detection with AF647 anti-human Fc F(ab')2
[2] = molecular target: human CD47 on cells (Raji, Nalm-6, HT-1080 tumor cells, human red blood cells) (human) (UniProt Q08722); experiment: inhibition of human SIRPα-mouse Fc binding to PD-L1- CD47+ Nalm-6 cells, CellInsight CX5
[3] = molecular target: rec. cyCD47 protein (Macaca fascicularis); experiment: ELISA; recombinant cynomolgus CD47 protein titrated (x axis, nM), fluorescence; format not described in the text
[4] = molecular target: human CD47 on cells (Raji, Nalm-6, HT-1080 tumor cells, human red blood cells) (human) (UniProt Q08722); experiment: flow cytometry on Raji cells (CD47+, PD-L1 very low), detection with AF647 anti-human Fc F(ab')2
[5] = molecular target: human CD47 on cells (Raji, Nalm-6, HT-1080 tumor cells, human red blood cells) (human) (UniProt Q08722); experiment: cell-based competitive binding assay on IFNg-induced HT-1080 cells (PD-L1+ CD47+): blocked ligand human SIRPa-mouse Fc, detected with anti-mouse Fc AF647, CellInsight CX5

EC50 (read off the curve) [1]: 0.5 nM | pIC50 [2]: 10.60 | EC50 (read off the curve) [3]: 0.4 nM | EC50 (read off the curve) [4]: 0.5 nM | IC50 (read off the curve) [5]: 0.02 nM
Substance: anti-CD47 5F9 analog (antibody)

pIC50: −log10 of the molar value.
